This passage reports Ki results from patent US6242199A, “Assays for growth hormone secretagogue receptors” (Merck & Co., Inc., priority 1998, dated 2001).

In test [1] the target is T1, growth hormone secretagogue receptor (GHSR), porcine anterior pituitary membranes (Sus scrofa, UniProt Q95254).
T1 construct: Frozen anterior pituitary glands from male swine (50-80 Kg); from tissue; host or cells: anterior pituitary glands of male swine (50-80 kg), crude membranes
In words: [35S]-Compound A radioreceptor binding, porcine anterior pituitary membranes. Conditions: competition with [35S]-Compound A. The procedure:
Frozen anterior pituitary glands from male swine (50-80 Kg) or from the Wistar male rats (150-200 g) were homogenized in a tissue homogenizer in ice-cold buffer (50 mM Tris-HCl buffer, pH 7.4, 5 mM MgCl2, 2.5 mM EDTA, 0.1% bovine serum albumin and 30 μg/ml bacitracin). The homogenates were centrifuged for 5 min at 1,400×g and the resulting supernatants were then centrifuged at 34,000×g for 20 min. The pellets were resuspended in same buffer to a 1,500 μg protein/ml and stored at -80° C. Protein was determined by a Bio-Rad method (Bio-Rad Laboratories, Richmond, Calif.).
Aliquots were incubated at 20° C. for 60 min and bound radioligand was separated from free by filtration through GF/C filters pretreated with 0.5% of polyethylenimine in a Brandel cell harvester. […] Assays were carried out in triplicate and experiments repeated at least three times.

For test [2], the target named is growth hormone secretagogue receptor (GHSR) of swine, native receptor of the anterior pituitary (swine) (UniProt Q95254). In words: competition with [35S]-Compound A on porcine anterior pituitary membranes, filtration.

Turning to GHRP-6, the Ki – broadly, a dissociation constant, usually derived from enzyme kinetics or from competition with a known ligand – in test [1] is 6.3 nM.
In the case of GHRP-6 (peptide), the Ki in test [2] came to 6.3 nM. That is a single-digit nanomolar value.
